This test concerns the target T1, Polyunsaturated fatty acid 5-lipoxygenase (Rattus norvegicus, UniProt P12527).
T1 sequence (P12527 whole entry): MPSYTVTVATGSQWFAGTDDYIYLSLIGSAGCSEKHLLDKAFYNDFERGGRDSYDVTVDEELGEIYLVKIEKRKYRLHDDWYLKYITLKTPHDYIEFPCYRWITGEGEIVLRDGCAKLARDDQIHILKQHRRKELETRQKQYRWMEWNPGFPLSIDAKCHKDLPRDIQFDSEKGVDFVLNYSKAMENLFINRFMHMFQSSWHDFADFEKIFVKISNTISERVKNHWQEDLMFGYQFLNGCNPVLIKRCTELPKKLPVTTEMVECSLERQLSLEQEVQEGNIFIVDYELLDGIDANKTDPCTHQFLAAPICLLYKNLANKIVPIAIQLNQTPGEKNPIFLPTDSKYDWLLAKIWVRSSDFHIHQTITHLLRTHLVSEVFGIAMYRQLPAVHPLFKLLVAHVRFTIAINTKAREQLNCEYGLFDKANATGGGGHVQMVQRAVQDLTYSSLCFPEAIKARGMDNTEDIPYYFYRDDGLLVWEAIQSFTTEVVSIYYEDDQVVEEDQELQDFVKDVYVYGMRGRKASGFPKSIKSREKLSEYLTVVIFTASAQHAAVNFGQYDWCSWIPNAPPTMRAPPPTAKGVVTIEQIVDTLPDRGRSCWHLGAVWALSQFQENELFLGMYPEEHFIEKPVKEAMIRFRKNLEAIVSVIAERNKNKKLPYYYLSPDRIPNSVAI
As to the kind of experiment: In vitro inhibitory activity against RBL-1 5-LO. In kind it is cell-based.

As for `O=C(/C=C/c1ccc2ccccc2c1)NO`, the IC50 – broadly, the point on the concentration scale where inhibition reaches its midpoint – came to 950 nM. With `CN(O)C(=O)/C(=C/c1ccc2ccccc2c1)c1ccccc1` the figure was 500 nM.

The values are drawn from ChEMBL document CHEMBL1123703, “Hydroxamic acid inhibitors of 5-lipoxygenase” (J Med Chem, 1987).
